Results from US11691963B2, “6-heteroaryloxy benzimidazoles and azabenzimidazoles as JAK2 inhibitors” (Ajax Therapeutics, Inc., priority 2020, dated 2023).

By UniProt entry, the sequences of proteins in these tests, tags left out. Residues count along the entry.
UniProt O60674, 849-1124 Y1007F/Y1008F: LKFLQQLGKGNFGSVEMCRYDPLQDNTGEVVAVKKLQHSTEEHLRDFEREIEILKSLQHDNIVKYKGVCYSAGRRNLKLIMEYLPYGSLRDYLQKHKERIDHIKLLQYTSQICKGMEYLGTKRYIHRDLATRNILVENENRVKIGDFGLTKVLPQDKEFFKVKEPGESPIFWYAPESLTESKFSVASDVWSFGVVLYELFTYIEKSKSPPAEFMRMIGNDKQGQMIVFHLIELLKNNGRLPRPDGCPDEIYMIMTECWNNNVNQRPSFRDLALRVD

Molecular target: JAK2 (JH1domain-catalytic, Y1007F,Y1008F) kinase (Homo sapiens (Human), UniProt O60674, Y1007F/Y1008F)
Details: read-out: JAK2 Kd

| Compound | Kd [nM] |
| --- | --- |
| CC(=O)Nc1cc(Oc2ccc3nc(Nc4cc(C(C)(C)C)n([C@H]5C[C@H](O)C5)n4)n(C)c3c2)ccn1 [Example I-29, N-(4-((2-((5-(tert-butyl)-1-((1r,3r)-3-hydroxycyclobutyl)-1H-pyrazol-3-yl)amino)-1-methyl-1H-benzo[d]imidazol-6-yl)oxy)pyridin-2-yl)acetamide] | < 10 |
| CC(=O)Nc1cc(Oc2ccc3nc(Nc4cc(C(F)(F)F)n(C[C@H]5CC[C@@H](O)CC5)n4)n(C)c3c2)ccn1 [Example I-35, N-(4-((2-((1-(((1s,4s)-4-hydroxycyclohexyl)methyl)-5-(trifluoromethyl)-1H-pyrazol-3-yl)amino)-1-methyl-1H-benzo[d]imidazol-6-yl)oxy)pyridin-2-yl)acetamide] | 50 to 1000 |
| CC(=O)Nc1cc(Oc2ccc3nc(Nc4cc5n(n4)CCCC5(C)C)n(C)c3c2)ccn1 [Example I-40, N-(4-((2-((4,4-dimethyl-4,5,6,7-tetrahydropyrazolo[1,5-c]pyridin-2-yl)amino)-1-methyl-1H-benzo[d]imidazol-6-yl)oxy)pyridin-2-yl)acetamide] | < 10 |

Same assay, conditions: read-out: JAK2 Kd; JAK2 JH1 domain-catalytic, Y1007F,Y1008F; qPCR readout

| Kd [nM] | Compound |
| --- | --- |
| < 10 | CC(=O)Nc1cc(Oc2ccc3nc(Nc4cc(C(C)(C)C)n([C@@H]5CCOC5)n4)n(C)c3c2)ccn1 [Example I-24, (R)—N-(4-((2-((5-(tert-butyl)-1-(tetrahydrofuran-3-yl)-1H-pyrazol-3-yl)amino)-1-methyl-1H-benzo[d]imidazol-6-yl)oxy)pyridin-2-yl)acetamide] |
| < 10 | CC(=O)Nc1cc(Oc2ccc3nc(Nc4cc(C(C)(C)C)n(C5CCOCC5)n4)n(C)c3c2)ccn1 [Example I-27, N-(4-((2-((5-(tert-butyl)-1-(tetrahydro-2H-pyran-4-yl)-1H-pyrazol-3-yl)amino)-1-methyl-1H-benzo[d]imidazol-6-yl)oxy)pyridin-2-yl)acetamide] |
| 1000 to 5000 | CC(=O)Nc1cc(Oc2ccc3nc(N[C@H]4CC[C@H](C(C)(C)C)CC4)n(C)c3c2)ccn1 [Example I-51, N-(4-((2-(((1r,4r)-4-(tert-butyl)cyclohexyl)amino)-1-methyl-1H-benzo[d]imidazol-6-yl)oxy)pyridin-2-yl)acetamide] |
| < 10 | COCCn1cc(C(F)(F)F)cc(Nc2nc3ccc(Oc4ccnc(NC(C)=O)c4)cc3n2C)c1=O [Example I-52] |
| < 10 | CC(=O)Nc1cc(Oc2ccc3nc(Nc4cc(C(F)(F)F)cn(C)c4=O)n(C)c3c2)ccn1 [Example I-54, N-(4-((1-methyl-2-((1-methyl-2-oxo-5-(trifluoromethyl)-1,2-dihydropyridin-3-yl)amino)-1H-benzo[d]imidazol-6-yl)oxy)pyridin-2-yl)acetamide] |
| 1000 to 5000 | CO[C@H]1C[C@@H](n2cc(Nc3nc4ccc(Oc5ccnc(NC(C)=O)c5)cc4n3C)cc(C(F)(F)F)c2=O)C1 [Example I-56, N-(4-((2-((1-((1s,3s)-3-methoxycyclobutyl)-6-oxo-5-(trifluoromethyl)-1,6-dihydropyridin-3-yl)amino)-1-methyl-1H-benzo[d]imidazol-6-yl)oxy)pyridin-2-yl)acetamide] |
| < 10 | CC(=O)Nc1cc(Oc2ccc3nc(Nc4cc(C5CC5)cn(C)c4=O)n(C)c3c2)ccn1 [Example I-61, N-(4-((2-((5-cyclopropyl-1-methyl-2-oxo-1,2-dihydropyridin-3-yl)amino)-1-methyl-1H-benzo[d]imidazol-6-yl)oxy)pyridin-2-yl)acetamide] |
| < 10 | CC(=O)Nc1cc(Oc2ccc3nc(Nc4cc(C5CC5)cn(C)c4=O)n(C)c3c2C#N)ccn1 [Example I-62, N-(4-((7-cyano-2-((5-cyclopropyl-1-methyl-2-oxo-1,2-dihydropyridin-3-yl)amino)-1-methyl-1H-benzo[d]imidazol-6-yl)oxy)pyridin-2-yl)acetamide] |
| < 10 | CC(=O)Nc1cc(Oc2ccc3nc(Nc4cc(C5CC5)cn(C)c4=O)n(C)c3n2)ccn1 [Example I-63, N-(4-((2-((5-cyclopropyl-1-methyl-2-oxo-1,2-dihydropyridin-3-yl)amino)-3-methyl-3H-imidazo[4,5-b]pyridin-5-yl)oxy)pyridin-2-yl)acetamide] |
| < 10 | CC(=O)Nc1cc(Oc2ccc3nc(Nc4cc(C5CC5)cn(C(C)C)c4=O)n(C)c3n2)ccn1 [Example I-65, N-(4-((2-((5-cyclopropyl-1-isopropyl-2-oxo-1,2-dihydropyridin-3-yl)amino)-3-methyl-3H-imidazo[4,5-b]pyridin-5-yl)oxy)pyridin-2-yl)acetamide] |
| < 10 | CC(=O)Nc1cc(Oc2ccc3nc(Nc4cc(C5CC5)cn(C5CCOCC5)c4=O)n(C)c3c2)ccn1 [Example I-69, N-(4-((2-((5-cyclopropyl-2-oxo-1-(tetrahydro-2H-pyran-4-yl)-1,2-dihydropyridin-3-yl)amino)-1-methyl-1H-benzo[d]imidazol-6-yl)oxy)pyridin-2-yl)acetamide] |
| < 10 | CC(=O)Nc1cc(Oc2ccc3nc(Nc4cc(C5CC5)cn(CC5(CO)CC5)c4=O)n(C)c3c2)ccn1 [Example I-70, N-(4-((2-((5-cyclopropyl-1-((1-(hydroxymethyl)cyclopropyl)methyl)-2-oxo-1,2-dihydropyridin-3-yl)amino)-1-methyl-1H-benzo[d]imidazol-6-yl)oxy)pyridin-2-yl)acetamide] |
| < 10 | CC(=O)Nc1cc(Oc2ccc3nc(Nc4cc(C5CC5)cn(Cc5ncco5)c4=O)n(C)c3c2)ccn1 [Example I-71, N-(4-((2-((5-cyclopropyl-1-(oxazol-2-ylmethyl)-2-oxo-1,2-dihydropyridin-3-yl)amino)-1-methyl-1H-benzo[d]imidazol-6-yl)oxy)pyridin-2-yl)acetamide] |
| < 10 | COCCn1cc(C2CC2)cc(Nc2nc3ccc(Oc4ccnc(NC(C)=O)c4)nc3n2C)c1=O [Example I-72, N-(4-((2-((5-cyclopropyl-1-(2-methoxyethyl)-2-oxo-1,2-dihydropyridin-3-yl)amino)-3-methyl-3H-imidazo[4,5-b]pyridin-5-yl)oxy)pyridin-2-yl)acetamide] |

More lines, now with the values behind:

| Compound | Kd [nM] |
| --- | --- |
| CC(=O)Nc1cc(Oc2ccc3nc(Nc4cc(C(C)(C)C)n([C@H]5CCOC5)n4)n(C)c3c2C#N)ccn1 [Example I-21, (S)—N-(4-((2-((5-(tert-butyl)-1-(tetrahydrofuran-3-yl)-1H-pyrazol-3-yl)amino)-7-cyano-1-methyl-1H-benzo[d]imidazol-6-yl)oxy)pyridin-2-yl)acetamide] | < 10 |
| CC(=O)Nc1cc(Oc2ccc3nc(Nc4cc(C(C)(C)C)n([C@@H]5CCOC5)n4)n(C)c3c2C#N)ccn1 [Example I-25, (R)—N-(4-((2-((5-(tert-butyl)-1-(tetrahydrofuran-3-yl)-1H-pyrazol-3-yl)amino)-7-cyano-1-methyl-1H-benzo[d]imidazol-6-yl)oxy)pyridin-2-yl)acetamide] | < 10 |
| CC(=O)Nc1cc(Oc2ccc3nc(Nc4cc(C(C)(C)C)n([C@@H]5CCOC5)n4)n(C)c3n2)ccn1 [Example I-26, (R)—N-(4-((2-((5-(tert-butyl)-1-(tetrahydrofuran-3-yl)-1H-pyrazol-3-yl)amino)-3-methyl-3H-imidazo[4,5-b]pyridin-5-yl)oxy)pyridin-2-yl)acetamide] | < 10 |
| CC(=O)Nc1cc(Oc2ccc3nc(Nc4cc(C(C)(C)C)n(CC5COC5)n4)n(C)c3c2)ccn1 [Example I-31, N-(4-((2-((5-(tert-butyl)-1-(oxetan-3-ylmethyl)-1H-pyrazol-3-yl)amino)-1-methyl-1H-benzo[d]imidazol-6-yl)oxy)pyridin-2-yl)acetamide] | < 10 |
| CC(=O)Nc1cc(Oc2ccc3nc(Nc4cc(C(C)(C)C)n(CC5COC5)n4)n(C)c3c2C#N)ccn1 [Example I-32, N-(4-((2-((5-(tert-butyl)-1-(oxetan-3-ylmethyl)-1H-pyrazol-3-yl)amino)-7-cyano-1-methyl-1H-benzo[d]imidazol-6-yl)oxy)pyridin-2-yl)acetamide] | < 10 |
| CC(=O)Nc1cc(Oc2ccc3nc(Nc4cc(C(F)(F)F)n(CC5CCOCC5)n4)n(C)c3c2C#N)ccn1 [Example I-34, N-(4-((7-cyano-1-methyl-2-((1-((tetrahydro-2H-pyran-4-yl)methyl)-5-(trifluoromethyl)-1H-pyrazol-3-yl)amino)-1H-benzo[d]imidazol-6-yl)oxy)pyridin-2-yl)acetamide] | < 10 |
| CC(=O)Nc1cc(Oc2ccc3nc(Nc4cc(C(F)(F)F)n(C5CC6(COC6)C5)n4)n(C)c3c2)ccn1 [Example I-37, N-(4-((2-((1-(2-oxaspiro[3.3]heptan-6-yl)-5-(trifluoromethyl)-1H-pyrazol-3-yl)amino)-1-methyl-1H-benzo[d]imidazol-6-yl)oxy)pyridin-2-yl)acetamide] | < 10 |
| CC(=O)Nc1cc(Oc2ccc3nc(Nc4cc5n(n4)CCCC5(C)C)n(C)c3c2C#N)ccn1 [Example I-41, N-(4-((7-cyano-2-((4,4-dimethyl-4,5,6,7-tetrahydropyrazolo[1,5-a]pyridin-2-yl)amino)-1-methyl-1H-benzo[d]imidazol-6-yl)oxy)pyridin-2-yl)acetamide] | < 10 |
| COCCn1cc(C(F)(F)F)cc(Nc2nc3ccc(Oc4ccnc(NC(C)=O)c4)c(C#N)c3n2C)c1=O [Example I-53, N-(4-((7-cyano-2-((1-(2-methoxyethyl)-2-oxo-5-(trifluoromethyl)-1,2-dihydropyridin-3-yl)amino)-1-methyl-1H-benzo[d]imidazol-6-yl)oxy)pyridin-2-yl)acetamide] | < 10 |
| CC(=O)Nc1cc(Oc2ccc3nc(Nc4cc(C(F)(F)F)cn(C)c4=O)n(C)c3c2C#N)ccn1 [Example I-55, N-(4-((7-cyano-1-methyl-2-((1-methyl-2-oxo-5-(trifluoromethyl)-1,2-dihydropyridin-3-yl)amino)-1H-benzo[d]imidazol-6-yl)oxy)pyridin-2-yl)acetamide] | < 10 |
| CO[C@H]1C[C@@H](n2cc(Nc3nc4ccc(Oc5ccnc(NC(C)=O)c5)c(C)c4n3C)cc(C(F)(F)F)c2=O)C1 [Example I-57, N-(4-((2-((1-((1s,3s)-3-methoxycyclobutyl)-6-oxo-5-(trifluoromethyl)-1,6-dihydropyridin-3-yl)amino)-1,7-dimethyl-1H-benzo[d]imidazol-6-yl)oxy)pyridin-2-yl)acetamide] | 50 to 1000 |
